Test results as given in article PMC8305974, “Novel Hybrid Compounds Containing Benzofuroxan and Aminothiazole Scaffolds: Synthesis and Evaluation of Their Anticancer Activity” (International Journal of Molecular Sciences, 2021).

Experiments:
Test in all cases: Cytotoxicity assay (Cytell Cell Imaging, Cell Viability Bio App)
Chang Liver = details: read-out: Cytotoxic effects (IC50) Chang Liver; normal cell line Chang Liver; tested at 1–100 μM; mean ± SD, three repeats
HuTu 80 = details: read-out: Cytotoxic effects (IC50) HuTu 80; cancer cell line HuTu 80; tested at 1–100 μM; mean ± SD, three repeats
M-HeLa = details: read-out: Cytotoxic effects (IC50) M-HeLa; cancer cell line M-HeLa; tested at 1–100 μM; mean ± SD, three repeats
PANC-1 = details: read-out: Cytotoxic effects (IC50) PANC-1; cancer cell line PANC-1; tested at 1–100 μM; mean ± SD, three repeats

With O=[N+]([O-])c1cc([N+](=O)[O-])c2no[n+]([O-])c2c1Cl as the molecule, how does the IC50 (Chang Liver) read?
Its IC50 is over 100 µM.

And the IC50 (HuTu 80)?
The IC50 was over 100 µM.

What about the IC50 (M-HeLa) of the same molecule?
Its IC50 is 94.1 µM.

What about the IC50 (PANC-1) of the same molecule?
The IC50 was over 100 µM.
